Broadly, the IC50 is the concentration that gives 50% inhibition.

The first assay relates to UACC-62 cells.
Experiment: not given
To be noted: read-out: IC50 (μM) at 72 hours.
In the case of `O=P1(C(c2ccccc2)(c2ccccc2)c2ccccc2)OCCO1` [CX13], the half-inhibitory concentration (IC50) was 13.8 µM.

The test system of the next assay is UACC-62 cells. As to the kind of experiment: cells. The settings on record: Homo sapiens, UACC-62, 72 h, read-out: IC50 (μM) at 72 hours.
Regarding `CCOP(=O)(OCC)C(c1ccccc1)c1ccccc1` [CX17], the IC50 was 51 µM.
Still for that read-out and setting: under `COP(=O)(OC)C(c1ccccc1)(c1ccccc1)c1ccccc1` [CX1] stands 0.33 µM; under `CCOP(=O)(OCC)C(c1ccccc1)(c1ccccc1)c1ccccc1` [CX5], 0.67 µM.

Still in this assay, the particulars now being: Homo sapiens, UACC-62, 72 h, read-out: IC50 (μM) at 72 hours, UACC-62 cells, 72 hours.
For the molecule `C#CCOP(=O)(OCC#C)C(c1ccccc1)(c1ccccc1)c1ccccc1` [CX8], the IC50 came out at 2.5 µM.
As to `CCCCOP(=O)(OCCCC)C(c1ccccc1)(c1ccccc1)c1ccccc1` [CX12], the IC50 turned out to be 4.6 µM.
The same measure, in the same setting: under `O=C(O)C1OP(=O)(C(c2ccccc2)(c2ccccc2)c2ccccc2)OC1C(=O)O` (stereo not shown) [CX9] stands 2.33 µM.
The same measure, in the same setting: with `O=P1(C(c2ccccc2)(c2ccccc2)c2ccccc2)OCCO1` [CX13] the figure was 7.19 µM.
Still for that read-out and setting: with `CC#CCOP(=O)(OCC#CC)C(c1ccccc1)(c1ccccc1)c1ccccc1` [CX11] the figure was 4.5 µM.
On to `O=C(O)CCCn1cc(COP(=O)(OCc2cn(CCCC(=O)O)nn2)C(c2ccccc2)(c2ccccc2)c2ccccc2)nn1` [CX2], for which the IC50 is 0.29 µM.
Same read-out and setting: with `CCCCOP(=O)(OCCC)C(c1ccccc1)(c1ccccc1)c1ccccc1` (stereo not shown) [CX7] the figure was 2.3 µM.
Still for that read-out and setting: under `C=C(C)CCOP(=O)(OCCC(=C)C)C(c1ccccc1)(c1ccccc1)c1ccccc1` [CX15] stands 16.5 µM.
On the same count and under the same terms, with `O=P(OCC(O)CO)(OCC(O)CO)C(c1ccccc1)(c1ccccc1)c1ccccc1` (stereo not shown) [CX4] the figure was 0.64 µM; with `CC(O)(CO)CCOP(=O)(OCCC(C)(O)CO)C(c1ccccc1)(c1ccccc1)c1ccccc1` (stereo not shown) [CX6], 0.72 µM; with `CC(C)OC(=O)C1OP(=O)(C(c2ccccc2)(c2ccccc2)c2ccccc2)OC1C(=O)OC(C)C` (stereo not shown) [CX10], 4.21 µM.

Staying with this assay, now noted: Homo sapiens, UACC-62, read-out: diethyl TPMP IC50 (μM).
For `CCOP(=O)(OCC)C(c1ccccc1)(c1ccccc1)c1ccccc1` [CX5], the half-inhibitory concentration (IC50) was 0.67 µM.

These data come from patent US7709465B2, “Phosphorous containing compounds including triphenylmethylphosphonate esters for the treatment of melanoma and other cancers” (The Board of Trustees of the University of Illinois, priority 2006, dated 2010).
